Results published in ChEMBL document CHEMBL1139149, “Discovery of tertiary aminoacids as dual PPARalpha/gamma agonists-I” (Bioorg Med Chem Lett, 2007).

Legend:
[1] = target: T1, Peroxisome proliferator-activated receptor alpha (Homo sapiens, UniProt Q07869); assay: Displacement of fluorescein labeled ligand from PPARalpha receptor by fluorescence polarization assay
T1 sequence (Q07869 whole entry): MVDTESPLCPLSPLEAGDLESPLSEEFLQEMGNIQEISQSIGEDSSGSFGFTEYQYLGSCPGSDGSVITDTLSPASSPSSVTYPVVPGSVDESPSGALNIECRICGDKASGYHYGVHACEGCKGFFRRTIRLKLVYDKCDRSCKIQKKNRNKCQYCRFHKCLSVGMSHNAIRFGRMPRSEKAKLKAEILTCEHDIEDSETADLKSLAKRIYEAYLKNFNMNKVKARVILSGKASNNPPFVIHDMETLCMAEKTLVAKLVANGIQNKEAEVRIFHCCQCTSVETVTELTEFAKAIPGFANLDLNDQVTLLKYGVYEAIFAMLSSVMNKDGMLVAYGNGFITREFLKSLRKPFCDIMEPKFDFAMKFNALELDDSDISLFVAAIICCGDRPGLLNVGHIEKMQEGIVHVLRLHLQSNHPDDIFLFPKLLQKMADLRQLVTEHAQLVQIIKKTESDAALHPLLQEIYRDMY

[2] = target: T1, Peroxisome proliferator-activated receptor alpha; assay: Agonist activity at PPARalpha receptor expressed in HEK293 cells by GAL4 transactivation assay; type: functional, cell-based

Structure (SMILES): Cc1oc(-c2ccccc2)nc1CCOc1ccc(C[C@H](Nc2ccccc2C(=O)c2ccccc2)C(=O)O)cc1 [FARGLITAZAR]
- IC50 [1]: 2.87 µM
- EC50 [2]: 0.321 µM
